Results reported in ChEMBL document CHEMBL4808148, “HDAC6 screening dataset using tau-based substrate in an enzymatic assay yields selective inhibitors and activators” (2021).
The strong results were mostly taken out for another list; the other results follow.

molecular target: T1, Protein deacetylase HDAC6 (Homo sapiens) (UniProt Q9UBN7); details: at 10 µM
T1 sequence (whole entry): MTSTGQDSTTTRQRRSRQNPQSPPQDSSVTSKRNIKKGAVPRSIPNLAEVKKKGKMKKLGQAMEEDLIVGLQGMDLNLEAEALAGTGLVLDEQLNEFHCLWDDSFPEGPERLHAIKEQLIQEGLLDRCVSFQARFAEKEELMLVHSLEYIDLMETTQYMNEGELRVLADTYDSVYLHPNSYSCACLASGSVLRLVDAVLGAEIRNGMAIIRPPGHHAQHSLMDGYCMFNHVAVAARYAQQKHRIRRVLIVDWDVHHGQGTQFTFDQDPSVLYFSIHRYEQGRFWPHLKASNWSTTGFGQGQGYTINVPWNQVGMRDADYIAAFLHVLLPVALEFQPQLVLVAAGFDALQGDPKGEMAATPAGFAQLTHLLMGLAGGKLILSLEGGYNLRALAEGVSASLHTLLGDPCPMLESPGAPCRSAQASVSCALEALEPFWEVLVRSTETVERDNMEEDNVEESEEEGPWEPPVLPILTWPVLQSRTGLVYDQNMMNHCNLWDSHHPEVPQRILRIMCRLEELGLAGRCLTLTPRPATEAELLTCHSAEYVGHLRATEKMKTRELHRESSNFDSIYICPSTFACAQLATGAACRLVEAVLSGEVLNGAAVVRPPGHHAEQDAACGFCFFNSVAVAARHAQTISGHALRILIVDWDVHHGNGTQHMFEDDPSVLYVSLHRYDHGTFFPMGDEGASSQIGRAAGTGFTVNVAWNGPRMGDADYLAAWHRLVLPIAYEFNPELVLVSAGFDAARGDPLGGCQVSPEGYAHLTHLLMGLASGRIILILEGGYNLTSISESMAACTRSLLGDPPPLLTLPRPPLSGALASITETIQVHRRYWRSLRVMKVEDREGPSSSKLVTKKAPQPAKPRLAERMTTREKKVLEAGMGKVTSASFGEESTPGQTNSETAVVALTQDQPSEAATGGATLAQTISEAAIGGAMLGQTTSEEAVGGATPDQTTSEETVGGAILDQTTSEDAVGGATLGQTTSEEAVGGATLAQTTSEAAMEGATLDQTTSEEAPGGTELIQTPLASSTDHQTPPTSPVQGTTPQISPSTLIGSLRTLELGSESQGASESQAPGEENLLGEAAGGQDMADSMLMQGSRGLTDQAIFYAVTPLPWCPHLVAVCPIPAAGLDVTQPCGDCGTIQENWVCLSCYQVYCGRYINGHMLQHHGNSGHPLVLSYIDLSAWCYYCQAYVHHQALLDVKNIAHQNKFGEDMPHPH

Row | SMILES | inhibition [%]
1 | Clc1ccc(N2CCN(Cc3c[nH]c4ncccc34)CC2)cc1 | -8.35
